Source: patent publication US20140323418A1 (published 2014)

These compounds were tested against full length active recombinant SYK enzyme (Homo sapiens, UniProt P43405) (assay: Inhibition of Syk tyrosine phosphorylation activity (LANCE TR-FRET kinase assay)).

Structure (SMILES)	IC50 [nM]
Cc1cccc(Nc2nc(N[C@@H]3[C@H](F)CCC[C@@H]3N)ncc2C(N)=O)c1 (racemic) [Example 173]	100 to 1000
NC(=O)c1cnc(N[C@@H]2CCCCC2=O)nc1Nc1cccc(-n2nccn2)c1 [Example 164, (R)-4-(3-(2H-1,2,3-triazol-1-yl)phenylamino)-2-(2-oxocyclohexylamino)pyrimidine-5-carboxamide]	100 to 1000
NC(=O)c1cnc(N[C@@H]2CCCC[C@@H]2N=O)nc1Nc1cccc(-n2nccn2)c1 [Example 176, 4-(3-(2H-1,2,3-triazol-1-yl)phenylamino)-2-((1R,2S)-2-nitrosocyclohexylamino)pyrimidine-5-carboxamide]	100 to 1000
